Target: Urokinase-type plasminogen activator (Homo sapiens, UniProt P00749)
Experiment: Abbott uPA__Urokinase Human - Ki(uM)
Conditions: pH 7.4; 25 °C

Compound `[H]/N=C(\N)c1ccc2ccc(OC)c(OCCCBr)c2c1` [uPa_3] has a Ki of 6.39 µM.
